The assay concerns the target human HDAC8 (Homo sapiens, UniProt Q9BY41, T69A). Briefly: biochemical.

The chains behind the UniProt entries cited, without tags or fusion partners. A line that says so, or that is headed by a name, gives the form on record, which may keep a tag or linker.
UniProt Q9BY41, with tags, fused parts or gaps T69A: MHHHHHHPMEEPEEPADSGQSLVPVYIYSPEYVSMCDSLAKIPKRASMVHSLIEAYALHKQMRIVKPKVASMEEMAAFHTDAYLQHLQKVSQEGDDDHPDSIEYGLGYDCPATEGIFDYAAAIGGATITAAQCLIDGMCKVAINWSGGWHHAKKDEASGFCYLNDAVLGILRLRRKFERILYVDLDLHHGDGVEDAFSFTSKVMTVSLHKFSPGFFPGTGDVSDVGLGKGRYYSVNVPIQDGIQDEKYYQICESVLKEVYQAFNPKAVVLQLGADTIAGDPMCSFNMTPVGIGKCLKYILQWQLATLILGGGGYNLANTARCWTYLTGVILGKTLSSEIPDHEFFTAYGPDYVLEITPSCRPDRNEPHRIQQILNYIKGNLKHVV

Take `O=C(CCCCCCC(=O)Nc1ccccc1)NO` [SAHA, suberanilohydroxamic acid]: the IC50 came out at 0.13 µM.

These data come from patent publication US7250514B1, “Histone deacetylase inhibitors” (Takeda San Diego, Inc., priority 2002, dated 2007).
